CycPeptMPDB entries from one study

Data: CycPeptMPDB; original report Frost et al. 2016, doi:10.1038/nchem.2636.

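Lipid, pH, incubation time, direction and concentration are not recorded in the data file. Other peptides of the study may be missing here. Peptides that the database sets to -10, its floor, are left out.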

PAMPA measures passive passage through an artificial lipid membrane.
P is given in units of 10^-6 cm/s (from log10 values with two decimals); larger means faster passage.

CC(C)C[C@@H]1NC(=O)CNC(=O)[C@@H]2CCCN2[C@H](Cc2ccccc2)C2=NN=C(O2)[C@H](Cc2ccccc2)NC(=O)CNC1=O is reported with PAMPA 5.4 × 10^-6 cm/s. For CC(C)C[C@@H]1NC(=O)CNC(=O)[C@@H]2CCCN2[C@H](CC(C)C)C2=NN=C(O2)[C@H](Cc2ccccc2)NC(=O)CNC1=O the data give PAMPA 5.4 × 10^-6 cm/s. CC(C)C[C@@H]1NC(=O)CNC(=O)[C@@H]2CCCN2C(=O)[C@H](C)NC(=O)[C@H](Cc2ccccc2)NC(=O)[C@H](C)NC1=O has PAMPA 0.0087 × 10^-6 cm/s. CC[C@@H]1C2=NN=C(O2)[C@H](Cc2ccccc2)NC(=O)[C@H](C)NC(=O)[C@H](CC(C)C)NC(=O)[C@H](C)NC(=O)[C@@H]2CCCN12 is reported with PAMPA 3.4 × 10^-6 cm/s.

CC(C)C[C@@H]1NC(=O)[C@H](C)NC(=O)[C@@H]2CCCN2C(=O)[C@H](C)NC(=O)[C@H](Cc2ccccc2)NC(=O)CNC1=O is reported with PAMPA 0.074 × 10^-6 cm/s. CC(C)C[C@@H]1NC(=O)[C@H](C)NC(=O)[C@@H]2CCCN2C(=O)[C@H](C)NC(=O)[C@H](Cc2ccccc2)NC(=O)[C@H](C)NC1=O is reported with PAMPA 0.047 × 10^-6 cm/s. For CC[C@@H]1C2=NN=C(O2)[C@H](Cc2ccccc2)NC(=O)[C@H](CC(C)C)NC(=O)[C@H](CC(C)C)NC(=O)[C@H](Cc2ccccc2)NC(=O)[C@@H]2CCCN12 the data give PAMPA 13 × 10^-6 cm/s. The entry for CC[C@@H]1C2=NN=C(O2)[C@H](Cc2ccccc2)NC(=O)[C@H](C)NC(=O)[C@H](CC(C)C)NC(=O)CNC(=O)[C@@H]2CCCN12 lists PAMPA 1.1 × 10^-6 cm/s.

The entry for CC[C@@H]1C2=NN=C(O2)[C@H](Cc2ccccc2)NC(=O)CNC(=O)[C@H](CC(C)C)NC(=O)[C@H](C)NC(=O)[C@@H]2CCCN12 lists PAMPA 3.8 × 10^-6 cm/s. Listed for CC(C)C[C@@H]1NC(=O)[C@H](CC(C)C)NC(=O)[C@H](Cc2ccccc2)NC(=O)[C@@H]2CCCN2C(=O)[C@H](C)NC(=O)[C@H](Cc2ccccc2)NC1=O: PAMPA 11 × 10^-6 cm/s.

Excerpt, the final 2 entries:

Listed for CC[C@@H]1C2=NN=C(O2)[C@H](Cc2ccccc2)NC(=O)CNC(=O)[C@H](CC(C)C)NC(=O)[C@H](C)NC(=O)[C@@H]2CCCN12: PAMPA 3.8 × 10^-6 cm/s.
Listed for CC(C)C[C@@H]1NC(=O)[C@H](CC(C)C)NC(=O)[C@H](Cc2ccccc2)NC(=O)[C@@H]2CCCN2C(=O)[C@H](C)NC(=O)[C@H](Cc2ccccc2)NC1=O: PAMPA 11 × 10^-6 cm/s.